According to patent US20220183972A1, “NANOEMULSION HYDROPHOBIC […]” (VERTOSA INC., priority 2018, published 2022):

Experiment: Emulsion droplet size by DLS, Polyglyceryl-4 main surfactants
Assay type: physicochemical
Conditions: 1 g cannabinoid oil, 0.7 g olive oil, 2.5 g Polyglyceryl-4 surfactant, 1.5 g sunflower lecithin, 40 g water, 80% amplitude

Polyglyceryl-4 Laurate
final emulsion droplet average size: 488 nm
